The supplement of paper PMC10307832

Legend:
Test in all cases: relative viability (nuclei count vs DMSO), 5 days (fraction); higher = more cells survive
XMD8-85 + Palbociclib = compound: CN1CCN(CC1)C2=CC(=C(C=C2)NC3=NC=C4C(=N3)N(C5=CC=CC=C5C(=O)N4C)C)OC [XMD8-85] + CC(=O)c1c(C)c2cnc(Nc3ccc(N4CCNCC4)cn3)nc2n(C2CCCC2)c1=O [Palbociclib] (partner 0.5 µM)
How it was run: (§1)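 Relative viability is defined as nuclei in treated wells over nuclei in vehicle wells. Duplicate plates were run and medians reported. Lung cancer cell lines in 1536-well plates were dosed by pin tool one day after seeding, with one drug or with a fixed anchor-drug dose plus five library-drug doses (not always all listed) in √10 steps, and nuclei were counted after 5 days.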

XMD8-85 + Lapatinib = compound: CN1CCN(CC1)C2=CC(=C(C=C2)NC3=NC=C4C(=N3)N(C5=CC=CC=C5C(=O)N4C)C)OC [XMD8-85] + CS(=O)(=O)CCNCc1ccc(-c2ccc3ncnc(Nc4ccc(OCc5cccc(F)c5)c(Cl)c4)c3c2)o1 [Lapatinib] (partner 2 µM)
How it was run: as §1

XMD8-85 + Navitoclax = compound: CN1CCN(CC1)C2=CC(=C(C=C2)NC3=NC=C4C(=N3)N(C5=CC=CC=C5C(=O)N4C)C)OC [XMD8-85] + CC1(C)CCC(c2ccc(Cl)cc2)=C(CN2CCN(c3ccc(C(=O)NS(=O)(=O)c4ccc(N[C@H](CCN5CCOCC5)CSc5ccccc5)c(S(=O)(=O)C(F)(F)F)c4)cc3)CC2)C1 [Navitoclax] (partner 0.5 µM)
How it was run: as §1

XMD8-85 + Alpelisib = compound: CN1CCN(CC1)C2=CC(=C(C=C2)NC3=NC=C4C(=N3)N(C5=CC=CC=C5C(=O)N4C)C)OC [XMD8-85] + Cc1nc(NC(=O)N2CCC[C@H]2C(N)=O)sc1-c1ccnc(C(C)(C)C(F)(F)F)c1 [Alpelisib] (partner 2 µM)
How it was run: as §1

XMD8-85 + Dasatinib = compound: CN1CCN(CC1)C2=CC(=C(C=C2)NC3=NC=C4C(=N3)N(C5=CC=CC=C5C(=O)N4C)C)OC [XMD8-85] + Cc1nc(Nc2ncc(C(=O)Nc3c(C)cccc3Cl)s2)cc(N2CCN(CCO)CC2)n1 [Dasatinib] (partner 0.075 µM); settings: first compound 8 µM
How it was run: as §1

XMD8-85 + AZD7762 = compound: CN1CCN(CC1)C2=CC(=C(C=C2)NC3=NC=C4C(=N3)N(C5=CC=CC=C5C(=O)N4C)C)OC [XMD8-85] + NC(=O)Nc1cc(-c2cccc(F)c2)sc1C(=O)N[C@H]1CCCNC1 [AZD7762] (partner 0.2 µM)
How it was run: as §1

XMD8-85 + Phenformin = compound: CN1CCN(CC1)C2=CC(=C(C=C2)NC3=NC=C4C(=N3)N(C5=CC=CC=C5C(=O)N4C)C)OC [XMD8-85] + N=C(N)NC(=N)NCCc1ccccc1 [Phenformin] (partner 250 µM)
How it was run: as §1

XMD8-85 + Decitabine = compound: CN1CCN(CC1)C2=CC(=C(C=C2)NC3=NC=C4C(=N3)N(C5=CC=CC=C5C(=O)N4C)C)OC [XMD8-85] + Nc1ncn([C@H]2C[C@H](O)[C@@H](CO)O2)c(=O)n1 [Decitabine] (partner 2 µM)
How it was run: as §1

XMD8-85 + OSI-027 = compound: CN1CCN(CC1)C2=CC(=C(C=C2)NC3=NC=C4C(=N3)N(C5=CC=CC=C5C(=O)N4C)C)OC [XMD8-85] + COc1cccc2cc(-c3nc([C@H]4CC[C@H](C(=O)O)CC4)n4ncnc(N)c34)[nH]c12 [OSI-027] (partner 0.5 µM)
How it was run: as §1

XMD8-85 + Bortezomib = compound: CN1CCN(CC1)C2=CC(=C(C=C2)NC3=NC=C4C(=N3)N(C5=CC=CC=C5C(=O)N4C)C)OC [XMD8-85] + CC(C)C[C@H](NC(=O)[C@H](Cc1ccccc1)NC(=O)c1cnccn1)B(O)O [Bortezomib] (partner 0.002 µM)
How it was run: as §1

XMD8-85 + Pemetrexed = compound: CN1CCN(CC1)C2=CC(=C(C=C2)NC3=NC=C4C(=N3)N(C5=CC=CC=C5C(=O)N4C)C)OC [XMD8-85] + Nc1nc2[nH]cc(CCc3ccc(C(=O)N[C@@H](CCC(=O)O)C(=O)O)cc3)c2c(=O)[nH]1 [Pemetrexed] (partner 0.2 µM); settings: first compound 0.08 µM
How it was run: as §1

XMD8-85 + Olaparib = compound: CN1CCN(CC1)C2=CC(=C(C=C2)NC3=NC=C4C(=N3)N(C5=CC=CC=C5C(=O)N4C)C)OC [XMD8-85] + O=C(c1cc(Cc2n[nH]c(=O)c3ccccc23)ccc1F)N1CCN(C(=O)C2CC2)CC1 [Olaparib] (partner 8 µM)
How it was run: as §1

XMD8-85 + Linsitinib = compound: CN1CCN(CC1)C2=CC(=C(C=C2)NC3=NC=C4C(=N3)N(C5=CC=CC=C5C(=O)N4C)C)OC [XMD8-85] + C[C@]1(O)C[C@@H](c2nc(-c3ccc4ccc(-c5ccccc5)nc4c3)c3c(N)nccn32)C1 [Linsitinib] (partner 1 µM)
How it was run: as §1

XMD8-85 + Vorinostat = compound: CN1CCN(CC1)C2=CC(=C(C=C2)NC3=NC=C4C(=N3)N(C5=CC=CC=C5C(=O)N4C)C)OC [XMD8-85] + O=C(CCCCCCC(=O)Nc1ccccc1)NO [Vorinostat] (partner 1 µM)
How it was run: as §1

XMD8-85 + Luminespib = compound: CN1CCN(CC1)C2=CC(=C(C=C2)NC3=NC=C4C(=N3)N(C5=CC=CC=C5C(=O)N4C)C)OC [XMD8-85] + CCNC(=O)c1noc(-c2cc(C(C)C)c(O)cc2O)c1-c1ccc(CN2CCOCC2)cc1 [Luminespib] (partner 0.01 µM); settings: first compound 0.8 µM
How it was run: as §1

XMD8-85 + Pictilisib = compound: CN1CCN(CC1)C2=CC(=C(C=C2)NC3=NC=C4C(=N3)N(C5=CC=CC=C5C(=O)N4C)C)OC [XMD8-85] + CS(=O)(=O)N1CCN(Cc2cc3nc(-c4cccc5[nH]ncc45)nc(N4CCOCC4)c3s2)CC1 [Pictilisib] (partner 1 µM); settings: first compound 0.253 µM
How it was run: as §1

NCI-H727
relative viability (XMD8-85 + Palbociclib; first compound 0.08 µM): 0.625 | relative viability (XMD8-85 + Palbociclib; first compound 8 µM): 0.589 | relative viability (XMD8-85 + Lapatinib; first compound 0.8 µM): 0.879 | relative viability (XMD8-85 + Navitoclax; first compound 0.8 µM): 0.418

NCI-H1355
relative viability (XMD8-85 + Alpelisib; first compound 8 µM): 0.848 | relative viability (XMD8-85 + Palbociclib; first compound 0.8 µM): 0.621 | relative viability (XMD8-85 + Dasatinib): 0.577 | relative viability (XMD8-85 + AZD7762; first compound 8 µM): 0.589

NCI-H1437
relative viability (XMD8-85 + Phenformin; first compound 0.08 µM): 0.277 | relative viability (XMD8-85 + Decitabine; first compound 2.53 µM): 0.589

NCI-H1563
relative viability (XMD8-85 + OSI-027; first compound 0.253 µM): 0.828 | relative viability (XMD8-85 + Phenformin; first compound 2.53 µM): 0.714 | relative viability (XMD8-85 + Bortezomib; first compound 0.8 µM): 0.842

NCI-H1623
relative viability (XMD8-85 + Phenformin; first compound 8 µM): 0.487

NCI-H1648
relative viability (XMD8-85 + Pemetrexed): 0.712

NCI-H1651
relative viability (XMD8-85 + AZD7762; first compound 2.53 µM): 0.503

NCI-H1666
relative viability (XMD8-85 + Bortezomib; first compound 8 µM): 0.753 | relative viability (XMD8-85 + Olaparib; first compound 8 µM): 0.685

NCI-H1703
relative viability (XMD8-85 + Linsitinib; first compound 0.8 µM): 0.826 | relative viability (XMD8-85 + Olaparib; first compound 0.253 µM): 0.386

NCI-H1734
relative viability (XMD8-85 + Palbociclib; first compound 0.8 µM): 0.535 | relative viability (XMD8-85 + Decitabine; first compound 0.08 µM): 0.524 | relative viability (XMD8-85 + Olaparib; first compound 2.53 µM): 0.586 | relative viability (XMD8-85 + Pemetrexed): 0.386 | relative viability (XMD8-85 + AZD7762; first compound 8 µM): 0.547

NCI-H1755
relative viability (XMD8-85 + OSI-027; first compound 2.53 µM): 0.785

NCI-H1792
relative viability (XMD8-85 + AZD7762; first compound 0.253 µM): 0.586

NCI-H1915
relative viability (XMD8-85 + AZD7762; first compound 2.53 µM): 0.743

NCI-H1993
relative viability (XMD8-85 + Alpelisib; first compound 0.253 µM): 0.654 | relative viability (XMD8-85 + Olaparib; first compound 0.08 µM): 0.961 | relative viability (XMD8-85 + Navitoclax; first compound 0.253 µM): 0.936

NCI-H2009
relative viability (XMD8-85 + Vorinostat; first compound 0.8 µM): 0.712 | relative viability (XMD8-85 + Vorinostat; first compound 8 µM): 0.524

NCI-H2023
relative viability (XMD8-85 + Navitoclax; first compound 8 µM): 0.679 | relative viability (XMD8-85 + Vorinostat; first compound 0.8 µM): 0.753 | relative viability (XMD8-85 + Luminespib): 0.807

NCI-H2085
relative viability (XMD8-85 + Bortezomib; first compound 8 µM): 0.753

NCI-H2087
relative viability (XMD8-85 + Bortezomib; first compound 0.8 µM): 0.813 | relative viability (XMD8-85 + Olaparib; first compound 2.53 µM): 0.726

NCI-H2126
relative viability (XMD8-85 + Linsitinib; first compound 0.253 µM): 0.765 | relative viability (XMD8-85 + Vorinostat; first compound 0.253 µM): 0.835 | relative viability (XMD8-85 + Vorinostat; first compound 2.53 µM): 0.871

NCI-H2170
relative viability (XMD8-85 + Alpelisib; first compound 0.8 µM): 0.848 | relative viability (XMD8-85 + OSI-027; first compound 2.53 µM): 0.868

NCI-H2228
relative viability (XMD8-85 + Alpelisib; first compound 0.08 µM): 0.718 | relative viability (XMD8-85 + Lapatinib; first compound 2.53 µM): 0.954

NCI-H2342
relative viability (XMD8-85 + OSI-027; first compound 0.8 µM): 0.687

NCI-H2347
relative viability (XMD8-85 + Phenformin; first compound 8 µM): 0.392 | relative viability (XMD8-85 + Decitabine; first compound 2.53 µM): 0.646 | relative viability (XMD8-85 + Navitoclax; first compound 0.8 µM): 0.777 | relative viability (XMD8-85 + AZD7762; first compound 0.253 µM): 0.899 | relative viability (XMD8-85 + AZD7762; first compound 2.53 µM): 0.761

NCI-H2405
relative viability (XMD8-85 + Linsitinib; first compound 0.08 µM): 0.991 | relative viability (XMD8-85 + Palbociclib; first compound 0.253 µM): 0.527

PC-3 [JPC-3]
relative viability (XMD8-85 + Linsitinib; first compound 8 µM): 0.988 | relative viability (XMD8-85 + Decitabine; first compound 0.253 µM): 0.811 | relative viability (XMD8-85 + AZD7762; first compound 0.08 µM): 0.703

PC-14
relative viability (XMD8-85 + OSI-027; first compound 2.53 µM): 0.792 | relative viability (XMD8-85 + Vorinostat; first compound 2.53 µM): 0.612

RERF-LC-KJ
relative viability (XMD8-85 + Decitabine; first compound 0.08 µM): 0.718

SK-LU-1
relative viability (XMD8-85 + OSI-027; first compound 0.8 µM): 0.392 | relative viability (XMD8-85 + Pictilisib): 0.688 | relative viability (XMD8-85 + Olaparib; first compound 0.8 µM): 0.435 | relative viability (XMD8-85 + Vorinostat; first compound 0.08 µM): 0.761 | relative viability (XMD8-85 + Vorinostat; first compound 0.253 µM): 0.762
